Patent US4670038A, “Cyclotriphosphazatriene-derivatives as soil urease activity inhibitors” (Tennessee Valley Authority, priority 1986, dated 1987)

Tested on: soil urease
Experiment: Urea hydrolysis in bands of urea plus inhibitor in Hastings silt loam soil (banded system)
Format: biochemical
Settings: for Soil urease inhibition in words, banded soil tests: banded system, 3-day and 6-day tests

CN(C)P1(N(C)C)=NP(Cl)(Cl)=NP(Cl)(Cl)=N1
Unhydrolyzed Urea, % 3 Days (Table IV, inhibitor 10 percent of urea (wt/wt), 41 mg/band, two replications, 3 days): 0.0%
Unhydrolyzed Urea, % 6 Days (Table IV, inhibitor 10 percent of urea (wt/wt), 41 mg/band, two replications, 6 days): 0.0%

ClP1(Cl)=NP(Cl)(Oc2ccccc2)=NP(Cl)(Oc2ccccc2)=N1 (stereo not shown)
Soil urease inhibition in words, banded soil tests: not effective urease inhibitors

ClP1(Cl)=NP(Cl)(Cl)=NP(Cl)(Oc2ccccc2)=N1 (stereo not shown)
Soil urease inhibition in words, banded soil tests: not effective urease inhibitors
